Experimental data published in patent US9682066B2 (University of Cincinnati, priority 2012, dated 2017).

What was measured:
[1] = system: human glioma cell line U251MG; conditions: 0-100 μM, 1-3 days
C6 glioma = conditions: 4 mg/kg/day i.v. for 8-10 days, n=8; Day 0 average 150±48.5 mm^3; P=0.0001
[2] = system: human glioma cell line U251MG; test: cells; conditions: U-251, read-out: IC50 (MTT) cytotoxicity
[3] = system: human glioma cell line LN229; test: cells; conditions: LN-229, read-out: IC50 (MTT) cytotoxicity
[4] = system: human glioma cell line U87MG; test: cells; conditions: U-87 MG, read-out: IC50 (MTT) cytotoxicity
[5] = system: human glioma cell line LN229; conditions: 0-100 μM, 1-3 days
[6] = system: human glioma cell line U87MG; conditions: 0-100 μM, 1-3 days

## N#Cc1ccc(C(c2ccc(C#N)cc2)n2cncn2)cc1 [letrozole, 4,4′-((1H-1,2,4-triazol-1-yl)methylene)dibenzonitrile]
[1]
  cytotoxicity in charcoal-stripped serum medium compared to normal serum: higher
C6 glioma
  average active tumor volume on Day 8/10: 32.75±20 mm^3
[2]
  IC50: 910 nM
[3]
  IC50: 960 nM
[4]
  IC50: 1390 nM
[5]
  cytotoxicity in charcoal-stripped serum medium compared to normal serum: higher
[6]
  cytotoxicity in charcoal-stripped serum medium compared to normal serum: higher
